# Antibody variant affinities, Ab-14 light chain, assay B

Target peptide (SARS-CoV-2 spike, HR2 region): PDVDLGDISGINAS

Parent scFv Ab-14: VH joined to VL by a (GGGGS)3 linker. Changes lie in the light chain CDRs alone.
VH: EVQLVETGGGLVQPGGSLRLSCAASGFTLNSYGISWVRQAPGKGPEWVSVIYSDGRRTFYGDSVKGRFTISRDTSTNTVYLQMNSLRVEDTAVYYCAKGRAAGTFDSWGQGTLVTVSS
VL: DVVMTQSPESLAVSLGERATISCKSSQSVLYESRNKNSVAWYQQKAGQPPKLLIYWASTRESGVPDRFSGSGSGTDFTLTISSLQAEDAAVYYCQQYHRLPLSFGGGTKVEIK

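The parent was found by panning a naive human phage display library on the peptide. The variants were designed computationally from a first round of random CDR variants and then made and measured. Their group label is 14L_Ctrl (Ctrl: baseline library sampled from a position-specific scoring matrix, with some repeated check sequences). The scFvs were displayed on barcoded MATa yeast, the peptide on MATalpha yeast. The frequency of each diploid, read from paired DNA barcodes, reflects how well the two displayed proteins bind. Each replicate has its own calibration line, from reference interactions of the BCL2 family. Each pool was mated in six replicate cultures.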

Each variant is given by its three light chain CDRs, as the data file delimits them; those of the parent are KSSQSVLYESRNKNSVA, WASTRES, QQYHRLPLS.
The read-out is the apparent dissociation constant on a log10 scale (nM): the lower, the stronger.
Where no diploid with the target was found in that replicate, the entry reads "n.d.": below detection, most likely a poor binder, though not proof of it.
A sequence measured in both rounds can read differently, since the two assays cover different ranges.
In the paper, a design with two or fewer of six values counts as a poor binder.
As a blank, each scFv also met three strains without target: over all light chain designs, 4% of these pairings were detected, typically at 2.64 and seldom below 1.59. The control count says in how many pairings with the empty strains this scFv gave a signal, with their mean in brackets.

CDR-L1	CDR-L2	CDR-L3	replicates, log10 nM	signal with controls
KSSQSVLYESRNNNSVA	SASTRES	QQYHRLPLS	1.74 1.58 1.74 1.61 1.19 1.61	0 of 18
KSSQSVLYEERNKNSVA	GASTRES	QQYHRLPLS	0.56 0.85 1.09 0.81 0.56 0.89	0 of 18
KCSQSVLYESNNKNSVA	WASDRES	PQYHRLPLS	n.d. n.d. 2.84 1.50 1.60 2.23	0 of 18
KSSQSVLYESDNKNSVA	QASTRES	QQYHRLPLS	0.68 0.55 0.44 0.54 0.65 0.72	1 of 18 (2.15)
KSSQSVLYESRNKNSVA	WASTRES	QQYHRLYLS	3.78 2.39 1.19 1.96 1.95 n.d.	0 of 18
KSSQSWLYESRNNNSVA	WASTRES	QQYHRLPLS	n.d. n.d. n.d. 2.30 n.d. 1.91	0 of 18
KMSQSWLQESNNKNSVA	WASVRES	TQYHRLPLS	0.64 1.06 0.67 0.70 1.30 0.83	0 of 18
KMSQSVLYESRNKMSVA	WASTRES	QQYHRLPLD	n.d. 2.52 3.03 n.d. 3.85 n.d.	1 of 18 (2.88)
KSSQSVLYESRNKNSVA	WDSTRES	QQYHGLPLS	n.d. n.d. n.d. n.d. n.d. n.d.	3 of 18 (1.90)
KSSQSVLYESYNFNAVA	WASTRES	QQYHRLPLS	n.d. n.d. n.d. 2.65 n.d. n.d.	0 of 18
KSSQSVLYESRTKNSVA	WAMTRES	YQYHRFPLS	n.d. n.d. n.d. n.d. n.d. n.d.	3 of 18 (1.70)
KSSQSVLYESRNKNSVA	WASTRES	QCYHRLPLS	n.d. n.d. n.d. n.d. n.d. n.d.	0 of 18
KSSQSVEYESRNKNSVA	GASTRES	QQYHRLPLS	0.70 0.65 0.69 0.60 0.53 0.53	0 of 18
KSSMSVLYEMDNKNSVA	WASTRES	QQYHRHPLS	n.d. n.d. n.d. n.d. n.d. n.d.	0 of 18
KFSQSDLYESRNKNSQA	WASTRES	QQYHREPLS	n.d. n.d. n.d. n.d. n.d. n.d.	1 of 18 (1.28)
KSSQSVLYESREKNNVA	WASIRES	QQYHRLPLS	n.d. n.d. n.d. n.d. n.d. n.d.	0 of 18
KSSQSQLPESRNKNSVA	WATTRES	QQYHRLPLS	1.87 1.11 1.35 2.08 2.11 1.55	0 of 18
KSSQSVLYESRNKNSVA	DASTRES	YQYKRLPLS	n.d. n.d. n.d. n.d. n.d. n.d.	0 of 18
KSSQEVLYESRNKNSVA	SASTRES	QQYHRLPLS	0.61 0.72 0.32 0.38 0.18 0.87	0 of 18
KVSQYVLYESRNKNSVA	WASTRES	QQYHRLPLS	1.72 0.97 0.20 0.47 0.81 1.16	1 of 18 (1.73)
KVSQSVLYESRMKNSVA	KASTREW	QQYQRLPLS	0.71 1.37 0.93 0.80 1.90 0.95	2 of 18 (2.16)
KSSQSVLYESLNYNSVA	WASTRES	QQYHRLPLS	2.19 3.35 1.77 2.39 1.58 n.d.	0 of 18
KSSESVLYESRNKTSVA	RASTRES	QQYHRLPLS	3.99 n.d. n.d. n.d. n.d. n.d.	0 of 18
KSSDSVLYEDRNKNSVA	WASTRES	QQYHRLPLS	n.d. n.d. n.d. n.d. n.d. n.d.	0 of 18
KMSQSVDYESRNMNSVA	WASTRES	QQYHRLPLS	0.14 0.40 0.43 -0.02 0.25 0.49	0 of 18
KCSQSVVYESVNTNSVA	WASTRES	QQYHRLPLS	2.05 2.54 n.d. 1.29 2.13 1.79	0 of 18
KSSQSGLYESRNLYSVA	WASTRCS	FQYHRLPLS	n.d. n.d. n.d. n.d. n.d. n.d.	1 of 18 (2.31)
KRSQSVLTESENKNSVA	WASTRES	QQYHRLPLS	n.d. n.d. n.d. n.d. n.d. n.d.	0 of 18
KMSQSTLYESRNKSSVA	WASTRES	QQYHRLPLS	1.95 1.71 1.89 2.65 1.45 1.33	1 of 18 (2.10)
KSSQSELGCSRGKNSVA	DASTRES	QQYHRLPLS	0.22 -0.04 -0.20 0.20 -0.02 0.29	3 of 18 (2.29)
KMRQSVLQEFRNKNSVA	DASTRES	QQYHRLPLS	0.25 0.19 0.07 0.03 0.14 0.40	2 of 18 (3.11)
KSSPSPEYESRNKNSVA	WATTRES	QQYHRLPLS	1.15 0.66 1.01 0.89 0.98 0.93	0 of 18
KSSQSVLYESRNKNSVA	GASTRES	QQYHILPLS	n.d. n.d. n.d. n.d. n.d. n.d.	0 of 18
KSSQSFLYESRNKNSVA	WASTQES	QQYHRLPLS	n.d. n.d. n.d. n.d. n.d. n.d.	1 of 18 (2.04)
KSQQSVLYESDNKNSVA	EASTRES	QQYHRYPLS	n.d. 1.72 1.61 1.84 2.52 1.99	0 of 18
KVSQSVLYESRNKNSVA	WASTRES	QQYHRMPYS	2.26 1.83 1.88 3.91 1.98 1.97	0 of 18
KMPQSVLYESQNKNSVA	WASTRES	QQYLRLPLS	0.25 0.15 0.19 -0.03 0.27 0.17	1 of 18 (1.50)
KSSQSVLQESDNKNSVA	WASTRES	QQYHRLPLS	1.39 0.93 0.79 0.17 0.36 0.28	1 of 18 (1.62)
KISQSLLYESNNKNSVA	KASTRES	QQYHRLPLP	0.18 -0.02 -0.34 -0.41 -0.15 -0.23	1 of 18 (3.41)
KSSQSVVYESRNKNSVA	WASTRAS	QQCHRLPLS	n.d. n.d. n.d. n.d. n.d. n.d.	1 of 18 (2.98)
KSSQSVLYESRNKNSVA	WASTRES	QQYHRLPLM	n.d. n.d. 2.54 n.d. n.d. n.d.	0 of 18
KFSWSVLYESRNCNSVA	WASERES	QQYHRLPLS	1.66 0.86 1.06 1.00 1.93 1.28	0 of 18
KSSQSVLYESRNKNAVA	WASTRES	QQYHRMPLS	1.94 n.d. 2.11 2.07 n.d. 2.54	0 of 18

Again, the first 7 entries without any signal:

CDR-L1	CDR-L2	CDR-L3	replicates, log10 nM	signal with controls
KSSQSVLYESRNKNSVA	WDSTRES	QQYHGLPLS	n.d. n.d. n.d. n.d. n.d. n.d.	3 of 18 (1.90)
KSSQSVLYESRTKNSVA	WAMTRES	YQYHRFPLS	n.d. n.d. n.d. n.d. n.d. n.d.	3 of 18 (1.70)
KSSQSVLYESRNKNSVA	WASTRES	QCYHRLPLS	n.d. n.d. n.d. n.d. n.d. n.d.	0 of 18
KSSMSVLYEMDNKNSVA	WASTRES	QQYHRHPLS	n.d. n.d. n.d. n.d. n.d. n.d.	0 of 18
KFSQSDLYESRNKNSQA	WASTRES	QQYHREPLS	n.d. n.d. n.d. n.d. n.d. n.d.	1 of 18 (1.28)
KSSQSVLYESREKNNVA	WASIRES	QQYHRLPLS	n.d. n.d. n.d. n.d. n.d. n.d.	0 of 18
KSSQSVLYESRNKNSVA	DASTRES	YQYKRLPLS	n.d. n.d. n.d. n.d. n.d. n.d.	0 of 18

Values reported by Li et al. 2023, doi:10.1038/s41467-023-39022-2 (FLAb copy).